Values of other authors as cited in patent EP1928431B1, “CONTROLLED RELEASE PHARMACEUTICAL COMPOSITION CONTAINING CARVEDILOL” (Egis Gyógyszergyár Nyilvánosan Múködö Részvénytársaság, priority 2005, dated 2007).

Conditions: ratio to carvedilol base; WO 03/092622

carvedilol monocitrate
more soluble in water than carvedilol base: 100 times
